Laboratory results published in patent US20130295185A1, “COMPOUNDS AND METHODS FOR INDUCING APOPTOSIS IN CANCER CELLS USING A BH3 ALPHA-HELICAL MIMETIC” (H. Lee Moffitt Cancer Center and Research Institute, Inc., priority 2011, published 2013).

The chains behind the UniProt entries cited, without tags or fusion partners.
UniProt Q07820, whole entry: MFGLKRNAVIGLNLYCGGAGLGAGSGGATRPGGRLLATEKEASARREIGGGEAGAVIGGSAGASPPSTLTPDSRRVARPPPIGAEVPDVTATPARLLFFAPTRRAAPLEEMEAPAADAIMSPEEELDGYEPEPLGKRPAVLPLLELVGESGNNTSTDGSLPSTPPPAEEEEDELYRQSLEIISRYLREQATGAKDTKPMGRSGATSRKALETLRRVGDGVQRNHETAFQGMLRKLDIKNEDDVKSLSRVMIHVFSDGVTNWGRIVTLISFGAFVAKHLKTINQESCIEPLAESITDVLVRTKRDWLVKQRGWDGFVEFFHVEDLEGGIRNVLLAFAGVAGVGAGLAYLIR

Legend:
[1] = target: endogenous Bak with endogenous Mcl-1 (Homo sapiens, UniProt Q07820); assay: Co-immunoprecipitation from H1299 cells; settings: H1299, 0-100 μM BH3-M6 or 100 μM TPC, 24 h; tested form: diammonium salt (as drawn, CO2NH4)
Method: FIG. 4 is a series of images illustrating BH3-M6 inhibits the interaction between Bcl-XL, Bcl-2, and Mcl-1 with Bim, Bak or Bax in intact cells. (A) Co-immunoprecipitation from HEK293T cells. HEK293T cells were co-transfected with HA-Bcl-XL and Flag-BimEL for 18 h. Cells were exposed to 0, 25, 50, and 100 μM of BH3-M6 or 100 μM of TPC for 2 h at 37° C., lysed and subjected to immunoprecipitation with anti-FLAG-M2 beads. The resulting immune complexes, as well as total lysates, were analyzed by Western blotting with the indicated antibodies. (B) Co-immunoprecipitation from MDA-MB-468 cells expressing Bcl-XL-IRES-BimEL, Bcl-2-IRES-BimEL, and Mcl-1-IRES-BimEL. […] The resulting immune complexes were analyzed by Western blotting with Bim, Bcl-XL, Bcl-2, and Mcl-1 antibodies. […] The resulting immune complexes were analyzed by Western blotting with the indicated antibodies. […] The resulting immune complexes were analyzed by Western blotting with the antibodies indicated on the right. […]
Next the inventors determined whether BH3-M6 could disrupt these interactions of the corresponding endogenous proteins. […] Finally, a mechanism by which freed Bax is believed to induce apoptosis is through a conformational change, which can be detected by a specific antibody. […]

caspase-3 and -7 = assay: Caspase-3/-7 activity in A549 cells; settings: A549, n=3; tested form: diammonium salt (as drawn, CO2NH4)
Method: Release of cytochrome c from isolated mitochondria was measured as described by Takahashi et al. (Takahashi, Y., Karbowski, M., Yamaguchi, H., Kazi, A., Wu, J., Sebti, S. M., Youle, R. J., and Wang, H. G. (2005) Mol Cell Biol 25, 9369-9382) Cell-free caspase-3/-7 activity and the extent of PARP cleavage was determined as described previously. (Kazi, A., Smith, D. M., Zhong, Q., and Dou, Q. P. (2002) Mol Pharmacol 62, 765-771) MTT (3-(4,5-dimethylthiazol-2-yl)-2,5-diphenyltetrazolium bromide) and TUNEL assays were performed according to Kazi et al., both of which are incorporated herein by reference. (Kazi, A., Lawrence, H., Guida, W. C., McLaughlin, M. L., Springett, G. M., Berndt, N., Yip, R. M. L., and Sebti, S. M. (2009) Cell Cycle 8, 1940-1951)
In addition, BH3-M6 induced apoptosis as measured by DAPI staining (FIG. 5B) and the appearance of an 85 kDa PARP fragment in a concentration-dependent manner (FIG. 5C). Furthermore, treatment of A549 cells with BH3-M6 induced activation of caspase-3 and -7 by about 2.7±0.1-fold (n=3) compared to controls (data not shown) and it inhibited cell viability as measured by MTT assay in a dose-dependent manner (FIG. 5D).

[2] = Plasma pharmacokinetics in A549 xenograft nude mice; settings: IP, 30 mg/kg, in DMSO, tested form: diammonium salt (as drawn, CO2NH4)
Method: FIG. 9 is an image depicting the plasma pharmacokinetics of the BH3M6 compound at 30 mg/kg from free drug delivered i.p., or micelle formulation delivered i.v. or oral gavage.
An A549 lung cancer xenograft model was used for the plasma and tumor accumulation studies. A549 lung cancer xenografts were grown in nude mice by implanting approximately 10 million cells into the right flank of each mouse, and allowed 3 weeks for the tumors to establish log growth and reach about 300-400 mm^3. The formulation from Example 2 was dissolved in 150 mM NaCl for both intravenous (IV) administration and oral administration. The free drug was dissolved in DMSO for intraperitoneal (IP) administration. Time points for sample collection were 5 minutes, 1 hour and 6 hours post administration. Naive, tumor-bearing mice were used as controls for blank plasma and tumor tissue. Blood was collected by heart puncture, where approximately 500 μL was added to a 1.5 mL collection tube containing EDTA as anticoagulant. Plasma was isolated from blood by centrifugation at 2000 RPM for 5 minutes. The BH3-M6 compound was extracted from plasma by adding 50 μL of each plasma sample to 150 μL ice cold methanol. Samples were vortexed for 10 minutes, centrifuged at 13,000 RPM for 10 minutes, and the methanol supernatant was collected for HPLC analysis to determine plasma pharmacokinetics of the BH3-M6 compound.

## CC(C)Cc1cc(-c2ccc(-c3ccc(CCC(=O)O)cc3CC(C)C)cc2Cc2ccccc2)ccc1OCC(=O)O
[1]
  inhibition of interaction of endogenous Bak with endogenous Mcl-1: dose-dependent inhibition
caspase-3 and -7
  activation of caspase-3 and -7 compared to controls: about 2.7±0.1 fold
[2]
  AUC: 28500 ng·h/mL
  CMax: 10.1 µg
  TMax: 5 min
  T½: 3.7 h
